# Antibody variant affinities, Ab-14 light chain, assay 1

Reference: Engelhart et al. 2022, doi:10.1038/s41597-022-01779-4. File: FLAb, binding data.

The target is the same throughout: PDVDLGDISGINAS, from the HR2 region of SARS-CoV-2 spike.

Parent scFv Ab-14: VH joined to VL by three GGGGS repeats. Changes lie in the light chain CDRs alone.
VH: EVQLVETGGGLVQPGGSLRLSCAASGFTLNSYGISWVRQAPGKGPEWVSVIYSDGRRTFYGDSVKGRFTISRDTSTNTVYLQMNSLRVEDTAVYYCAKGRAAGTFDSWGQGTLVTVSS
VL: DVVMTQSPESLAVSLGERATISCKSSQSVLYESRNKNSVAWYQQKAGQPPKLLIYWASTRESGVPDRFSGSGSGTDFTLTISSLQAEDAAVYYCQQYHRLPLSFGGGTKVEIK

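The parent was found by panning a naive human phage display library on the peptide. In library AAYL50, one, two or three CDR residues were substituted; doubles and triples were drawn at random. AlphaSeq pools MATa yeast showing the antibodies with MATalpha yeast showing the peptide. Mating (16 h, 30 °C) was followed by selection of diploids and sequencing of their barcodes. The ratio of observed to expected reads was calibrated, replicate by replicate, on BCL2-family standards whose Kd was known from biolayer interferometry. There are three technical replicates.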

Variants are written as CDR1, CDR2 and CDR3 of the light chain (limits as in the source). Parent: KSSQSVLYESRNKNSVA, WASTRES, QQYHRLPLS. Every variant below is changed at P101 of the VL (sequential numbering). Kd is apparent (estimated from mating counts) and averaged on the log scale over replicates with a signal. Smaller is tighter. A pair that was not seen in any replicate is written "nd"; this usually means weak binding, but a binder can also be missed. For reference, the parent read 4.4 nM as the reference entry and 48 nM as a member of this library. Three control strains display no target. For library AAYL50, 18% of the pairings with them gave a signal, with a median of 15 µM and one signal in twenty below 970 nM, so weak values seen in few replicates may be background.

* KSSQSVLYESRNKNSVS, IASTRES, QQYHRLRLS -> 530 nM (1 of 3 replicates)
* RSSQSVLYESMNKNSVA, WASTRES, QQYHRLYLS -> nd (0 of 3 replicates)
* KSSQSVLSESRNKNSVA, WASTRES, QQYHILDLS -> 390 nM (3 of 3 replicates)
* KSSQSWYYESRNKNSVA, WASTRES, QQYHRLRLS -> 2.2 nM (3 of 3 replicates)
* KSSQSVLYESRNKMSVA, WASTRES, QQYHALNLS -> 78 µM (1 of 3 replicates)
* KSSQSVLYESKNKNSIA, WASTRES, QQYHRLSLS -> 640 nM (2 of 3 replicates)
* KKSQSVLYESRNKNSVA, RASTRES, QQYHRLVLS -> nd (0 of 3 replicates)
* KSSQSVLMESRNKNSVA, WASTRES, QQMHRLTLS -> nd (0 of 3 replicates)
* KSGQSVLYESRNKNSQA, WASTRES, QQYHRLDLS -> nd (0 of 3 replicates)
* KSSQSVCYESRNKNSVA, WASTRES, QQYHRLFAS -> 9.7 nM (3 of 3 replicates)
* KSSQRVVYESRNKNSVA, WASTRES, QQYHRLRLS -> nd (0 of 3 replicates)
* KSSQSVLDESRNKNSVA, WWSTRES, QQYHRLALS -> nd (0 of 3 replicates)
* KSSQKVLYESRNKNSVA, WASTRES, KQYHRLALS -> nd (0 of 3 replicates)
* KSSQSVLYESRNKNSVA, WASWRES, IQYHRLWLS -> 9.3 µM (2 of 3 replicates)
* KSSQSVLYESFNKNSVA, WRSTRES, QQYHRLCLS -> nd (0 of 3 replicates)
* KSSQSVLYESRNKNSVA, WASTRES, QQYHRLRLS -> nd (0 of 3 replicates)
* KSSQSVLYESRNKNSVA, WASTRES, QTYHRLHNS -> 1.0 µM (1 of 3 replicates)
* KSSQSVLYESRNKNLVA, WASTRES, QQYHRQFLS -> nd (0 of 3 replicates)
* KSSQSVLYESRSKNSVA, WASTRMS, QQYHRLTLS -> nd (0 of 3 replicates)
* KSSASVLYESRNKISVA, WASTRES, QQYHRLQLS -> nd (0 of 3 replicates)
* KSSQSVLYESRNKNSVA, WYSTRES, GQYHRLNLS -> nd (0 of 3 replicates)
* KSSQSVLYESRNKQSVA, WASTRES, QQFHRLWLS -> 2.2 µM (1 of 3 replicates)
* KSSESVLYESRNKNSVT, WASTRES, QQYHRLILS -> 18 µM (1 of 3 replicates)
* KSSQSVLYESRNKNSVA, YASTPES, QQYHRLILS -> 220 nM (3 of 3 replicates)
* KSSQSVLYESRNKNSVA, WASTRES, QNYHFLVLS -> nd (0 of 3 replicates)
* KSSQSVLYESRNWNSVA, WASTRES, QIYHRLCLS -> 7.4 µM (2 of 3 replicates)
* KSSESVLYESRNKNSVA, NASTRES, QQYHRLQLS -> 11 nM (3 of 3 replicates)
* KSSQSVLYESRNKNSVA, WASTREY, QSYHRLALS -> 47 µM (3 of 3 replicates)
* KSSQSVLYESRNKNRVA, WASTRES, QQYHRLWLS -> nd (0 of 3 replicates)
* KSSQYVLYESRNKNSVA, WASTRHS, QQYHRLDLS -> 840 nM (3 of 3 replicates)
* KSSQSVLYESRNKNSVA, DASTRES, QQYHRLELY -> nd (0 of 3 replicates)
* KSSQSVLYESRNKNSVA, WASTRES, QQLHRLHLS -> nd (0 of 3 replicates)
* KSSFSVLYESRNKNSVA, WAWTRES, QQYHRLGLS -> 190 nM (2 of 3 replicates)
* KSSQSVLTESRNWNSVA, WASTRES, QQYHRLQLS -> 16 nM (3 of 3 replicates)
* KSSQSVLYESRNKNSVA, WASTNES, QTYHRLDLS -> 400 µM (1 of 3 replicates)
* KSSQSVLYESRNKNSVA, WASTRES, QQYYRLHYS -> 11 nM (3 of 3 replicates)
* KWSQSVLYESRNKNSVV, WASTRES, QQYHRLHLS -> nd (0 of 3 replicates)
* KSSQSVLYESRNQNSVA, WASTREK, QQYHRLNLS -> 6.1 nM (3 of 3 replicates)
* KSSQSVLYESRNKNIVA, WASTRES, QQYHRPFLS -> nd (0 of 3 replicates)
* KSAQSVLYESRNKNSVA, WASTRES, QQYHTLHLS -> 24 µM (2 of 3 replicates)